## AlphaSeq binding of Ab-14 heavy chain variants to a spike HR2 peptide

Reference: Li et al. 2023, doi:10.1038/s41467-023-39022-2. File: FLAb, binding data.

Target peptide (SARS-CoV-2 spike, HR2 region): PDVDLGDISGINAS

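The starting antibody came from a phage panning campaign against this peptide. This is the validation round: designs drawn from the data on random variants, tested in the same kind of assay. Their group label is 14H_GP_Gibbs (GP: Gaussian process model; Gibbs: Gibbs sampling; a sequence that several methods proposed may carry one label only). The assay is AlphaSeq: two haploid yeast populations carry antibody and antigen on their surface. Mating (16 h, 30 °C) was followed by selection of diploids and sequencing of their barcodes. Read counts were normalised to the haploid input and turned into Kd by a linear fit to BCL2-family pairs of known affinity, for each replicate. There are six technical replicates.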

Parent: Ab-14, a human scFv built as VH, three GGGGS repeats, VL. Only the CDRs of the heavy chain vary.
VH: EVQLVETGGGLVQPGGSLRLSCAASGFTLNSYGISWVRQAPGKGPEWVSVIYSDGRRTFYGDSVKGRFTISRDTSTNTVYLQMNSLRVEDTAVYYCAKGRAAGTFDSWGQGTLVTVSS
VL: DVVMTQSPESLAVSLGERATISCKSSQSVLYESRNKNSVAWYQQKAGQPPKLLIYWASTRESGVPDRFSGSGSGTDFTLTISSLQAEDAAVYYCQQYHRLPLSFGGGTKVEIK

Positions count from residue 1 of the parent VH; T28D puts D in place of T.
Values are log10 of the apparent Kd in nM; lower means stronger binding.
"nd" means that the variant was in the library but no mating with the target was seen in that replicate; the authors take this as a sign of poor binding, and no number exists.
The authors' rule: three or more of the six replicates give a measured affinity, fewer mean a poor binder.
Empty control strains, which show no peptide, gave a signal in 1% of pairings with all heavy chain designs; the median was 2.08 and 95% of these signals were weaker than 0.84. No background was subtracted. The control count says in how many pairings with the empty strains this scFv gave a signal.
Of ten entries with the parent sequence, four were seen in most replicates (averages 0.34 to 2.37), three in one and three in none, so single entries are noisy.
The range of this assay differs from that of the first round, and the authors advise against merging the two.

With T28D T58A R100Q A101T the result was -0.53, -0.24, 0.25, -0.78, -0.70, -0.56 (controls 0 of 18).
With R56K G61I A101E S107T the result was nd, 1.04, nd, nd, nd, 0.07 (controls 0 of 18).
With T28D G61A A101Q S107D the result was nd, 0.35, -0.12, 0.99, -0.10, 0.90 (controls 0 of 18).
With T28S S31N S107T the result was 0.57, 1.19, 0.74, 0.65, 0.78, 0.81 (controls 0 of 18).
With T28S S31E G61R S63H A101T the result was 0.70, nd, nd, 1.70, nd, 2.18 (controls 0 of 18).
With T28S A101S S107K the result was 1.36, 1.89, 1.75, nd, 2.17, 2.51 (controls 2 of 18).
With T28D S31T R100Q S107R the result was 0.50, 0.90, 0.66, 0.54, 1.05, 0.94 (controls 0 of 18).
With G26K T28D G61S R100K A101T the result was -0.09, -0.37, -0.11, -0.44, 0.39, -0.52 (controls 0 of 18).
With T28D R56K G61A S63N A101T the result was nd, 0.63, 1.48, 1.45, 0.70, 0.30 (controls 0 of 18).
With T28E R100D S107T the result was 0.62, 0.44, 0.50, 0.44, 0.63, 0.36 (controls 0 of 18).
With T28N F59A G61K the result was 1.07, 1.10, 0.43, -0.06, 0.16, 0.65 (controls 0 of 18).
With T28S R100I A101T S107L the result was 0.23, -0.20, 0.03, 0.29, -0.11, 0.24 (controls 0 of 18).
With T28E S31N G61H R100K the result was nd, 0.85, 0.78, 1.87, 2.24, 0.48 (controls 0 of 18).
With T28E S31T F59A A101Q the result was 0.99, 0.13, 0.66, 0.61, 0.00, 0.73 (controls 0 of 18).
With T28W G61K R100Q S107L the result was nd, nd, 1.72, nd, nd, nd (controls 0 of 18).
With T28N G61K R100Q A101N the result was nd, nd, nd, nd, 0.76, nd (controls 0 of 18).
With T28V S31E A101M the result was nd, nd, nd, nd, nd, nd (controls 0 of 18).
With T28S G61V S63D R100N S107A the result was -0.06, 0.19, -0.07, -0.10, 0.11, -0.06 (controls 0 of 18).
With T28S G61Q S63R A101T the result was -0.08, nd, nd, nd, 0.50, nd (controls 0 of 18).
With T28N S63R R100K A101Q the result was 2.04, 2.45, 1.18, 2.81, 1.30, 1.56 (controls 1 of 18).
With G26M T28E G61A A101T S107K the result was nd, -0.29, 1.11, 1.31, 1.15, 0.51 (controls 0 of 18).
With T28S S31N S53A A101T the result was 0.11, -0.15, -0.25, 0.05, 0.22, -0.08 (controls 0 of 18).
With T28S S31E S63P A101T S107D the result was -0.11, 0.13, -0.16, -0.40, -0.03, -0.36 (controls 0 of 18).
With G26K T28D G61T R100K A101N the result was 0.90, 1.69, 0.98, 1.14, 1.45, 1.50 (controls 0 of 18).
With T28E S31E A101T S107V the result was 0.31, 0.41, 0.71, 0.16, 0.20, 0.07 (controls 0 of 18).
With T28S S31E R100W S107N the result was 0.92, 2.13, 1.11, 1.20, 0.89, 0.55 (controls 0 of 18).
With T28S G61I S63A A101Q the result was nd, nd, 1.90, nd, 2.70, 3.03 (controls 0 of 18).
With T28E S63R R100I A101T the result was 0.42, 0.69, 0.70, 0.94, 0.35, 0.42 (controls 1 of 18).
With T28D S53A R100K S107T the result was 0.46, 0.10, 0.09, 0.68, 0.16, 0.07 (controls 0 of 18).
With T28E G61A S63K R100K A101T the result was 0.19, 1.44, 0.64, 0.25, 1.14, 1.94 (controls 0 of 18).
With G26K T28S G61I A101N the result was nd, nd, nd, nd, nd, 2.12 (controls 0 of 18).

Excerpt, the final 4 entries:

changes,"log10 Kd, replicates",signal with controls
T28E S63R R100I A101T,"0.42, 0.69, 0.70, 0.94, 0.35, 0.42",1/18
T28D S53A R100K S107T,"0.46, 0.10, 0.09, 0.68, 0.16, 0.07",0/18
T28E G61A S63K R100K A101T,"0.19, 1.44, 0.64, 0.25, 1.14, 1.94",0/18
G26K T28S G61I A101N,"nd, nd, nd, nd, nd, 2.12",0/18